Test results reported in ChEMBL document CHEMBL1134582 (J Med Chem, 2001).
pKi: −log10 of the molar value.

The chains behind the UniProt entries cited, without tags or fusion partners.
UniProt P25099, whole entry: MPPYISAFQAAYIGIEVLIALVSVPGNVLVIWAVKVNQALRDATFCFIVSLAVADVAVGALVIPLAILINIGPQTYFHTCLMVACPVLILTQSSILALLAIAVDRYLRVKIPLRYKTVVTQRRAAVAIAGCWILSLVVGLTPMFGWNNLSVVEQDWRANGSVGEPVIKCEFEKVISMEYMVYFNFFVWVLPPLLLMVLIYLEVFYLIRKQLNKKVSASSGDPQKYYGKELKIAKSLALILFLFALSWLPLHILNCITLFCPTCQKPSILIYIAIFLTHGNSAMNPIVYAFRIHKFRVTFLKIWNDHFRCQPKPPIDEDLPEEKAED

Target: Adenosine receptor A1 (Rattus norvegicus, UniProt P25099)
Experiment: Affinity towards adenosine A1 receptor from rat cortical membranes using [3H]DPCPX

- pKi: 6.15
SMILES: OC[C@H]1O[C@@H](n2cnc3c(NCc4cccc(I)c4)nc(Cl)nc32)[C@H](O)[C@@H]1O
